Measurements published in patent publication US20260183411A1, “TARGETING SORTILIN” (priority 2024, published 2026).

Columns and labels:
GAPDH mRNA [1] = test: GAPDH mRNA knockdown in HEK293 cells overexpressing SORT-1 (RT-qPCR); assay type: cell-based; conditions: HEK293 + SORT1 − CQ
Procedure: (§1) These GAPDH siRNA-peptide conjugates were then evaluated in HEK293 cells and the neuronal cell line, neuro2A.

GAPDH mRNA [2] = test: GAPDH mRNA knockdown in differentiated Neuro-2a cells (RT-qPCR); assay type: cell-based; conditions: Neuro2a − CQ
Procedure: as §1

6-azidohexanoic Acid-(bAla)(Sar)(Sar)(Sar)(Sar)APRWDAPLRDPALRQ(B13)(G48) [Peptide 2-GAPDH6-BCN]
GAPDH mRNA % knockdown compared to untreated cells (GAPDH mRNA [1]): 47% | GAPDH mRNA % knockdown compared to untreated cells (GAPDH mRNA [2]): 1%
